# Measured values published in patent EP4834897A1, “COMPOUNDS WITH TWO AZAHETEROCYCLES SUBSTITUTED ISOINDOLINONE SKELETON AND USES THEREOF” (dated 2026).
# Chains of the proteins cited; added tags and fusions are not shown.
# UniProt Q96SW2, whole entry: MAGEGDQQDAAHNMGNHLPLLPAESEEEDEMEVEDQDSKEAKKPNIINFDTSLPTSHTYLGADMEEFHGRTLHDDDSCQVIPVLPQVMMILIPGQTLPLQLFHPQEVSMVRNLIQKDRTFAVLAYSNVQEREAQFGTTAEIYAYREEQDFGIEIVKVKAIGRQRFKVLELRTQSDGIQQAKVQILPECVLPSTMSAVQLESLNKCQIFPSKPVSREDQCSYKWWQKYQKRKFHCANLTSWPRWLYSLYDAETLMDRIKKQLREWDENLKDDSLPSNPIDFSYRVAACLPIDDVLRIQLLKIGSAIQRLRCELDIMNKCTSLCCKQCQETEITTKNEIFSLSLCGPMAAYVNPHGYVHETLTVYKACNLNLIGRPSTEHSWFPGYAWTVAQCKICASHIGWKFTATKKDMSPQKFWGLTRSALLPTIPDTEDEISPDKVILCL
# UniProt P48729, whole entry: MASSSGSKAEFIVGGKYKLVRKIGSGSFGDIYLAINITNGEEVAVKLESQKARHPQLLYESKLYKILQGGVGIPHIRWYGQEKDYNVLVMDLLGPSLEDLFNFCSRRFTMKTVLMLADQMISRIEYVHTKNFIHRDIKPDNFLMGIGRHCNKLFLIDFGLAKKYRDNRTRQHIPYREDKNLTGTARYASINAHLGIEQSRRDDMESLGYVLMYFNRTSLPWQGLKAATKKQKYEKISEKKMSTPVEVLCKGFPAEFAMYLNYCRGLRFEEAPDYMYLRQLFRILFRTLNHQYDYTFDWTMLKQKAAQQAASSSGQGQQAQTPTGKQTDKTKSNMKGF
# UniProt P15170, whole entry: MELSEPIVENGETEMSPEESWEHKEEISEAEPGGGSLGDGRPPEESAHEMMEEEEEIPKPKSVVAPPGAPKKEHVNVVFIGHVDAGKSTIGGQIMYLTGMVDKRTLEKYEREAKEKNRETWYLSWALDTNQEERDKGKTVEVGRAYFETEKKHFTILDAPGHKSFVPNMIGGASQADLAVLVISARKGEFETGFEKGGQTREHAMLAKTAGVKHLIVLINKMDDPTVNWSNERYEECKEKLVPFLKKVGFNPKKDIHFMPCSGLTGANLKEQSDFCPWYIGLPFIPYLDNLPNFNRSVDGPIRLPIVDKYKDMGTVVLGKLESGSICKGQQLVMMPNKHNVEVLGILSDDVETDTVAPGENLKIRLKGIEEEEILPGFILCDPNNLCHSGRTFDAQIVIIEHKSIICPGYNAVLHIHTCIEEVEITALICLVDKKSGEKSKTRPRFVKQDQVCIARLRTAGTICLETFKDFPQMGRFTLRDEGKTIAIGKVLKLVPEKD
# UniProt Q13422, whole entry: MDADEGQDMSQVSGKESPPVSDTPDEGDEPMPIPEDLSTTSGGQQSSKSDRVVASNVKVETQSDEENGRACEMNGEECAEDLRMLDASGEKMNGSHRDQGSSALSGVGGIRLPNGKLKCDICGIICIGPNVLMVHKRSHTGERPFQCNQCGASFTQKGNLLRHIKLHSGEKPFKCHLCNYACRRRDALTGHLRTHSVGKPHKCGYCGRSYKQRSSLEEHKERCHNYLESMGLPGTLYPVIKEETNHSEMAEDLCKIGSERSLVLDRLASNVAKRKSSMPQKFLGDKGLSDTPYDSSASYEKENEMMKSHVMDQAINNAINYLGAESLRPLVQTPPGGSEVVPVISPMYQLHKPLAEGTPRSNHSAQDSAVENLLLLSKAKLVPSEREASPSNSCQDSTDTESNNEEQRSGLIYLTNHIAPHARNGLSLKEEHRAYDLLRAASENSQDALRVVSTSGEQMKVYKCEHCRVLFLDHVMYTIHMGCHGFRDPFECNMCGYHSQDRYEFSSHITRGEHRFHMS
# UniProt Q9UKS7, whole entry: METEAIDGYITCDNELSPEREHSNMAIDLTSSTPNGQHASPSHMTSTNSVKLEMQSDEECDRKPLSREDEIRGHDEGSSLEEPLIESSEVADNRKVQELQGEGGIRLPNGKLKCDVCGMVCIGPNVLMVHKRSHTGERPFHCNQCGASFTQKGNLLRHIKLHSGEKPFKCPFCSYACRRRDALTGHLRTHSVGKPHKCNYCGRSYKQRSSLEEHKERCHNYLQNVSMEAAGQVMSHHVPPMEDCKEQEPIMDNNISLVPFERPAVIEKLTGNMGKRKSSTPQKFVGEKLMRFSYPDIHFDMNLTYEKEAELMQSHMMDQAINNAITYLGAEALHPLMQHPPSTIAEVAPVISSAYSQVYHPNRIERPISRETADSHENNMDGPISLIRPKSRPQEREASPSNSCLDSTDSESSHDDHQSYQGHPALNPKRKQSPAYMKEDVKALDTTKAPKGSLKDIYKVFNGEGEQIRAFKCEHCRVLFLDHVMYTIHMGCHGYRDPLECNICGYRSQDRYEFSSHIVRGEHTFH
# UniProt Q9UKT9, whole entry: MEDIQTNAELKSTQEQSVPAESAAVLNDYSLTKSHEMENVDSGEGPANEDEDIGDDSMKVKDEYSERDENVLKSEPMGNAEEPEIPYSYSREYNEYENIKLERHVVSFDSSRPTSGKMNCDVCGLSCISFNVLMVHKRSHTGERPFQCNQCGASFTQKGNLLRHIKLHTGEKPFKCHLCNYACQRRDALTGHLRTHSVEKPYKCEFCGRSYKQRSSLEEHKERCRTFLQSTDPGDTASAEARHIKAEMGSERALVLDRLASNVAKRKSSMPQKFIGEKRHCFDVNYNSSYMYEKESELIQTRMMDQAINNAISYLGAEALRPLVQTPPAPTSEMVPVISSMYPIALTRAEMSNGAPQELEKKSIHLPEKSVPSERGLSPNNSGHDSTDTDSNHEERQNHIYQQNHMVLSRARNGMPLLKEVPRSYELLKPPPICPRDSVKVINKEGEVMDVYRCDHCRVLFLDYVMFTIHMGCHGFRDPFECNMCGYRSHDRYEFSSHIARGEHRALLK
# UniProt P30291, whole entry: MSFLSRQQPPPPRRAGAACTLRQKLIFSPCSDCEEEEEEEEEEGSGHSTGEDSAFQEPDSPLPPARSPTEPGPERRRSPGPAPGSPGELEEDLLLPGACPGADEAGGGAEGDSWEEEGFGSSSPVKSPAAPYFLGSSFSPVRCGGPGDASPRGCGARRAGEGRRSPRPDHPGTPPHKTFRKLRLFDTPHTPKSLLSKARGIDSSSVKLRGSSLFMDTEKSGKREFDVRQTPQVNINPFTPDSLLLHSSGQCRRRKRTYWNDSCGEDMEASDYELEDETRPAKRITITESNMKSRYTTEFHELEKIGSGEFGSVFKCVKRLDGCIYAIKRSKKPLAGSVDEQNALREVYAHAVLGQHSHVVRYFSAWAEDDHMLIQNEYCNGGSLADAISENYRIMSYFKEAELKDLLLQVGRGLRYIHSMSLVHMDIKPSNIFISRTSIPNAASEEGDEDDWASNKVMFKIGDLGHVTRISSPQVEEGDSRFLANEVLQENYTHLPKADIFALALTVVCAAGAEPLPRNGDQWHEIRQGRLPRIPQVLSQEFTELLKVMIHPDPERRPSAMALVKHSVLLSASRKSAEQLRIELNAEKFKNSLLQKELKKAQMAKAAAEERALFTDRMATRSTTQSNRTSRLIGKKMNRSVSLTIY
# UniProt Q16531, whole entry partner: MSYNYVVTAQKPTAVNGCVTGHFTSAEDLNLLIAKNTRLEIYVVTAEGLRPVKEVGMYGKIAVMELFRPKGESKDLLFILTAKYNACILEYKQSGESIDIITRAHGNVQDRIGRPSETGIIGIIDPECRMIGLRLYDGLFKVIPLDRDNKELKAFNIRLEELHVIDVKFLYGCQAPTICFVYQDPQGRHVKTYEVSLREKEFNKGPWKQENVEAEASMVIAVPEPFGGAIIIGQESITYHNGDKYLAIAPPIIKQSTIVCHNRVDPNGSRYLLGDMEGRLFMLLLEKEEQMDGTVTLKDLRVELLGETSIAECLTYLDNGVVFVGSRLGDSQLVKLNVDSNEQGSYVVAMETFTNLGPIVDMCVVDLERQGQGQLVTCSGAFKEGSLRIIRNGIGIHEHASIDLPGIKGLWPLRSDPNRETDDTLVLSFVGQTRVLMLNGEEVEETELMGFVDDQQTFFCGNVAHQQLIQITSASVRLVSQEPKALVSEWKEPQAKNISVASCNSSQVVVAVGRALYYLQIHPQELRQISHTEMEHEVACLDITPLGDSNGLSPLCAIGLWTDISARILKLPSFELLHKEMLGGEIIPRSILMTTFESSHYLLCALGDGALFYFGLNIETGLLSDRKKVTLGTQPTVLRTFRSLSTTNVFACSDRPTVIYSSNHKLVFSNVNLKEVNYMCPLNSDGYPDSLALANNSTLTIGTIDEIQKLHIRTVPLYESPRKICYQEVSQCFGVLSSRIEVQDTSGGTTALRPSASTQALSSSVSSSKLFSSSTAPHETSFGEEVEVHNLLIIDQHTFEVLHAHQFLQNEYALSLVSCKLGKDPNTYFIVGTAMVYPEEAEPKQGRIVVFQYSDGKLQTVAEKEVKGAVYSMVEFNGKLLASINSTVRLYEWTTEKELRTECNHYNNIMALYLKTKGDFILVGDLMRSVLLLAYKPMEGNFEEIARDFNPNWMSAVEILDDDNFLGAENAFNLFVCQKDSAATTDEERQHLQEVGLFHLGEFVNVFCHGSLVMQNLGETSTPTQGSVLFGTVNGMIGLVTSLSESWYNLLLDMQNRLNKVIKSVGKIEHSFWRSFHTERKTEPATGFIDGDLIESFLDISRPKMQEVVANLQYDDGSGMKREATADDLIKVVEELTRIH
# System: Human acute T lymphocytic leukemia cell (Molt4)
# Assay: Tumor cell proliferation inhibition (cell viability assay)
# Details: Molt4 cells; 10 nM; 96 hours
row,SMILES,Inhibition Rate at 10 nM (%)
1,O=C1CCC(N2Cc3c(ccc(CN4CCC(N5CCN(c6cccc(Cl)c6Cl)CC5)C(F)(F)C4)c3F)C2=O)C(=O)N1 (centres unmarked),1c6 (30% ≤ 1c6 < 40%)
2,O=C1CCC(N2Cc3cc(C(=O)N4CCC(N5CCN(c6cccc(Cl)c6Cl)CC5)C(F)(F)C4)c(F)cc3C2=O)C(=O)N1 (centres unmarked),1c7 (40% ≤ 1c7 < 50%)

# Same assay, conditions: Molt4 cells; 500 nM; 96 hours
row,SMILES,Inhibition Rate at 500 nM (%)
1,O=C1CCC(N2Cc3c(ccc(CN4CCC(N5CCN(c6cccc(Cl)c6Cl)CC5)C(F)(F)C4)c3F)C2=O)C(=O)N1 (centres unmarked),1c10 (70% ≤ 1c10 < 80%)
2,O=C1CCC(N2Cc3cc(C(=O)N4CCC(N5CCN(c6cccc(Cl)c6Cl)CC5)C(F)(F)C4)c(F)cc3C2=O)C(=O)N1 (centres unmarked),1c11 (80% ≤ 1c11 ≤ 100%)

# System: Human breast cancer cell (MCF-7)
# Assay: as above
# Details: MCF-7 cells; 10 nM; 96 hours
row,SMILES,Inhibition Rate at 10 nM (%)
1,O=C1CCC(N2Cc3c(ccc(CN4CCC(N5CCN(c6cccc(Cl)c6Cl)CC5)C(F)(F)C4)c3F)C2=O)C(=O)N1 (centres unmarked),1e6 (30% ≤ 1e6 < 40%)

# Same assay, conditions: MCF-7 cells; 500 nM; 96 hours
row,SMILES,Inhibition Rate at 500 nM (%)
1,O=C1CCC(N2Cc3c(ccc(CN4CCC(N5CCN(c6cccc(Cl)c6Cl)CC5)C(F)(F)C4)c3F)C2=O)C(=O)N1 (centres unmarked),1e8 (50% ≤ 1e8 < 60%)

# System: Human colon cancer cell (SW620)
# Assay: as above
# Details: SW620 cells; 10 nM; 96 hours
row,SMILES,Inhibition Rate at 10 nM (%)
1,O=C1CCC(N2Cc3c(ccc(CN4CCC(N5CCN(c6cccc(Cl)c6Cl)CC5)C(F)(F)C4)c3F)C2=O)C(=O)N1 (centres unmarked),1d3 (10% ≤ 1d3 < 20%)

# Same assay, conditions: SW620 cells; 500 nM; 96 hours
row,SMILES,Inhibition Rate at 500 nM (%)
1,O=C1CCC(N2Cc3c(ccc(CN4CCC(N5CCN(c6cccc(Cl)c6Cl)CC5)C(F)(F)C4)c3F)C2=O)C(=O)N1 (centres unmarked),1d9 (70% ≤ 1d9 < 80%)

# System: Human mantle cell lymphoma cell line (JEKO-1)
# Assay: as above
# Details: JEKO-1 cells; 10 nM; 96 hours
row,SMILES,Inhibition Rate at 10 nM (%)
1,O=C1CCC(N2Cc3c(ccc(CN4CCC(N5CCN(c6cccc(Cl)c6Cl)CC5)C(F)(F)C4)c3F)C2=O)C(=O)N1 (centres unmarked),1g3 (10% ≤ 1g3 < 20%)
2,O=C1CCC(N2Cc3cc(C(=O)N4CCC(N5CCN(c6cccc(Cl)c6Cl)CC5)C(F)(F)C4)c(F)cc3C2=O)C(=O)N1 (centres unmarked),1g6 (40% ≤ 1g6 < 50%)

# Same assay, conditions: JEKO-1 cells; 500 nM; 96 hours
row,SMILES,Inhibition Rate at 500 nM (%)
1,O=C1CCC(N2Cc3c(ccc(CN4CCC(N5CCN(c6cccc(Cl)c6Cl)CC5)C(F)(F)C4)c3F)C2=O)C(=O)N1 (centres unmarked),1g8 (60% ≤ 1g8 < 70%)
2,O=C1CCC(N2Cc3cc(C(=O)N4CCC(N5CCN(c6cccc(Cl)c6Cl)CC5)C(F)(F)C4)c(F)cc3C2=O)C(=O)N1 (centres unmarked),1g7 (50% ≤ 1g7 < 60%)

# System: Human multiple myeloma cell (MM.1S)
# Assay: as above
# Details: MM.1S cells; 10 nM; 96 hours
row,SMILES,Inhibition Rate at 10 nM (%)
1,O=C1CCC(N2Cc3c(ccc(CN4CCC(N5CCN(c6cccc(Cl)c6Cl)CC5)C(F)(F)C4)c3F)C2=O)C(=O)N1 (centres unmarked),1b6 (42% ≤ 1b6 < 50%)

# Same assay, conditions: MM.1S cells; 500 nM; 96 hours
row,SMILES,Inhibition Rate at 500 nM (%)
1,O=C1CCC(N2Cc3c(ccc(CN4CCC(N5CCN(c6cccc(Cl)c6Cl)CC5)C(F)(F)C4)c3F)C2=O)C(=O)N1 (centres unmarked),1b10 (80% ≤ 1b10 ≤ 100%)

# System: Human myeloid monocytic leukemia cell (MV-4-11)
# Assay: as above
# Details: MV-4-11 cells; 10 nM; 96 hours
row,SMILES,Inhibition Rate at 10 nM (%)
1,O=C1CCC(N2Cc3c(ccc(CN4CCC(N5CCN(c6cccc(Cl)c6Cl)CC5)C(F)(F)C4)c3F)C2=O)C(=O)N1 (centres unmarked),1a6 (40% < 1a6 < 50%)
2,O=C1CCC(N2Cc3cc(C(=O)N4CCC(N5CCN(c6cccc(Cl)c6Cl)CC5)C(F)(F)C4)c(F)cc3C2=O)C(=O)N1 (centres unmarked),1a5 (30% ≤ 1a5 ≤ 40%)

# Same assay, conditions: MV-4-11 cells; 500 nM; 96 hours
row,SMILES,Inhibition Rate at 500 nM (%)
1,O=C1CCC(N2Cc3c(ccc(CN4CCC(N5CCN(c6cccc(Cl)c6Cl)CC5)C(F)(F)C4)c3F)C2=O)C(=O)N1 (centres unmarked),1a10 (80% ≤ 1a10 < 100%)
2,O=C1CCC(N2Cc3cc(C(=O)N4CCC(N5CCN(c6cccc(Cl)c6Cl)CC5)C(F)(F)C4)c(F)cc3C2=O)C(=O)N1 (centres unmarked),1a9 (70% ≤ 1a9 < 80%)

# Target: CRBN (Homo sapiens, UniProt Q96SW2)
# Assay: CRBN binding affinity by HTRF (CEREBLON BINDING kit)
# Details: CRBN binding, HTRF, compound at 0.5 µM
row,SMILES,Inhibition Rate at 0.5 µM (%)
1,O=C1CCC(N2Cc3cc(C(=O)N4CCC(N5CCN(c6cccc(Cl)c6Cl)CC5)C(F)(F)C4)c(F)cc3C2=O)C(=O)N1 (centres unmarked),a2 (20% < a2 ≤ 30%)

# Same assay, conditions: CRBN binding, HTRF, compound at 2 µM
row,SMILES,Inhibition Rate at 2 µM (%)
1,O=C1CCC(N2Cc3cc(C(=O)N4CCC(N5CCN(c6cccc(Cl)c6Cl)CC5)C(F)(F)C4)c(F)cc3C2=O)C(=O)N1 (centres unmarked),a5 (53% < a5 ≤ 60%)

# Target: CK1α (Homo sapiens, UniProt P48729+Q96SW2)
# Assay: Western blot assay of substrate protein degradation in hPBMCs
# Details: 24 hours treatment, compounds at 50 nM and 500 nM (concentration behind the class not stated)
row,SMILES,substrate protein remaining % (CK1a)
1,O=C1CCC(N2Cc3c(ccc(CN4CCC(N5CCN(c6cccc(Cl)c6Cl)CC5)C(F)(F)C4)c3F)C2=O)C(=O)N1 (centres unmarked),A (0% ≤ substrate protein remaining % ≤ 80%)
2,O=C1CCC(N2Cc3cc(C(=O)N4CCC(N5CCN(c6cccc(Cl)c6Cl)CC5)C(F)(F)C4)c(F)cc3C2=O)C(=O)N1 (centres unmarked),B (80%< substrate protein remaining %≤ 100%)

# Target: GSPT1 (Homo sapiens, UniProt P15170+Q96SW2)
# Assay: as above
# Details: 24 hours treatment, compounds at 50 nM and 500 nM (concentration behind the class not stated)
row,SMILES,substrate protein remaining % (GSPT1)
1,O=C1CCC(N2Cc3c(ccc(CN4CCC(N5CCN(c6cccc(Cl)c6Cl)CC5)C(F)(F)C4)c3F)C2=O)C(=O)N1 (centres unmarked),A (0% ≤ substrate protein remaining % ≤ 80%)
2,O=C1CCC(N2Cc3cc(C(=O)N4CCC(N5CCN(c6cccc(Cl)c6Cl)CC5)C(F)(F)C4)c(F)cc3C2=O)C(=O)N1 (centres unmarked),A (0% ≤ substrate protein remaining % ≤ 80%)

# Target: IKZF1 (Homo sapiens, UniProt Q13422+Q96SW2)
# Assay: as above
# Details: 24 hours treatment, compounds at 50 nM and 500 nM (concentration behind the class not stated)
row,SMILES,substrate protein remaining % (IKZF 1)
1,O=C1CCC(N2Cc3c(ccc(CN4CCC(N5CCN(c6cccc(Cl)c6Cl)CC5)C(F)(F)C4)c3F)C2=O)C(=O)N1 (centres unmarked),A (0% ≤ substrate protein remaining % ≤ 80%)
2,O=C1CCC(N2Cc3cc(C(=O)N4CCC(N5CCN(c6cccc(Cl)c6Cl)CC5)C(F)(F)C4)c(F)cc3C2=O)C(=O)N1 (centres unmarked),B (80%< substrate protein remaining %≤ 100%)

# Target: IKZF2 (Homo sapiens, UniProt Q96SW2+Q9UKS7)
# Assay: as above
# Details: 24 hours treatment, compounds at 50 nM and 500 nM (concentration behind the class not stated)
row,SMILES,substrate protein remaining % (IKZF2)
1,O=C1CCC(N2Cc3c(ccc(CN4CCC(N5CCN(c6cccc(Cl)c6Cl)CC5)C(F)(F)C4)c3F)C2=O)C(=O)N1 (centres unmarked),A (0% ≤ substrate protein remaining % ≤ 80%)
2,O=C1CCC(N2Cc3cc(C(=O)N4CCC(N5CCN(c6cccc(Cl)c6Cl)CC5)C(F)(F)C4)c(F)cc3C2=O)C(=O)N1 (centres unmarked),A (0% ≤ substrate protein remaining % ≤ 80%)

# Target: IKZF3 (Homo sapiens, UniProt Q96SW2+Q9UKT9)
# Assay: as above
# Details: 24 hours treatment, compounds at 50 nM and 500 nM (concentration behind the class not stated)
row,SMILES,substrate protein remaining % (IKZF3)
1,O=C1CCC(N2Cc3c(ccc(CN4CCC(N5CCN(c6cccc(Cl)c6Cl)CC5)C(F)(F)C4)c3F)C2=O)C(=O)N1 (centres unmarked),A (0% ≤ substrate protein remaining % ≤ 80%)
2,O=C1CCC(N2Cc3cc(C(=O)N4CCC(N5CCN(c6cccc(Cl)c6Cl)CC5)C(F)(F)C4)c(F)cc3C2=O)C(=O)N1 (centres unmarked),B (80%< substrate protein remaining %≤ 100%)

# Target: WEE1 (Homo sapiens, UniProt P30291+Q96SW2)
# Assay: as above
# Details: 24 hours treatment, compounds at 50 nM and 500 nM (concentration behind the class not stated)
row,SMILES,substrate protein remaining % (WEE1)
1,O=C1CCC(N2Cc3c(ccc(CN4CCC(N5CCN(c6cccc(Cl)c6Cl)CC5)C(F)(F)C4)c3F)C2=O)C(=O)N1 (centres unmarked),A (0% ≤ substrate protein remaining % ≤ 80%)
2,O=C1CCC(N2Cc3cc(C(=O)N4CCC(N5CCN(c6cccc(Cl)c6Cl)CC5)C(F)(F)C4)c(F)cc3C2=O)C(=O)N1 (centres unmarked),A (0% ≤ substrate protein remaining % ≤ 80%)
